Only a part is listed here, and it is no random draw. Activity calls are given as the source filed them. Rule as the data show it: active = inhibition above about 30%; inactive = the rest.
test: growth suppression of yeast trafficking mutant, preliminary HTS, modulators of trafficking downstream of Golgi apparatus project, 1536-format plate, OD 615 nm (AID 637); details: yeast transport mutant growth, absorbance 615 nm, 18 h; active compounds read high

Row | SMILES | inhibition
1 | O=P(Nc1nccs1)(c1ccccc1)c1ccccc1 | inactive: 3.65%
2 | CCOP1(=S)c2c(C)nn(CCC#N)c2N=C(c2ccccc2F)N1C (stereo not given) | inactive: -10.7%
3 | Cc1nn(-c2ccccc2)c2c1P(=O)(N1CCOCC1)N(C)C(c1ccccc1)=N2 (stereo not given) | inactive: 17.6%
4 | COP1(=S)c2c(C)nn(CCC#N)c2N=C(c2ccc(F)cc2)N1C (stereo not given) | inactive: 1.59%
5 | O=C(COc1ccccc1)OC1CN2CCC1CC2 (stereo not given) | inactive: 2.73%
